Here are results for one compound from ChEMBL document CHEMBL5512649, “Drug development and potential targets for Cushing's syndrome” (Eur J Med Chem, 2024).

For the test, the target named is T1, dCTP pyrophosphatase 1 (Homo sapiens, UniProt Q9H773).
T1 sequence (Q9H773 whole entry): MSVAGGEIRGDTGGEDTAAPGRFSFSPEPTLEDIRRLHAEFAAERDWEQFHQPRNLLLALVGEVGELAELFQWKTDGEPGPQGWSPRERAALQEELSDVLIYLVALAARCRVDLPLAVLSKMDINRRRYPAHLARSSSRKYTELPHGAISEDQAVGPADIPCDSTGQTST
As to the kind of experiment: Inhibition of DCTPP1 (unknown origin).

As usually defined, the IC50 is the concentration needed to halve the response being measured. High values mean weaker potency, low ones greater potency. As for `CC(C)[C@]12O[C@H]1[C@@H]1O[C@]13[C@]1(O[C@H]1C[C@H]1C4=C(CC[C@@]13C)C(=O)OC4)[C@@H]2O` [TRIPTOLIDE], the IC50 amounted to 10 nM.
